Data on three molecules can be found in US20250320281A1 (published 2025).

The target in experiment [1] is aMLV envelope on pseudotyped virus (negative control) (aMLV). The experiment is described as follows: cell-based or functional assay.
The target in experiment [2] is aMLV envelope protein on pseudovirus. Description: cell-based or functional assay.

Some results are limits rather than exact numbers.

B1: 1456_P20 (PG20) (antibody, V domains shown)
VH: QVRLVQSGPEVKKPGSSVTVSCQASGGTFSSYAFTWVRQAPGQGLEWLGMVTPIFGEAKYSQRFEGRVTITADESTSTTSIELRGLTSEDTAIYYCARDRRAVPIATDNWLDPWGQGTLVTVSS
VL: DIQLTQSPSSLSASVGDRVSITCRASQTINNYLNWYQQTPGKAPKLLIYGASNLQNGVPSRFSGSGSGTDFTLTISSLQPEDFATYYCQQSFSTPRTFGQGTRLDIKR
As for B1, in experiment [1], the “Neutralizing Antibody Assay: IC50; Virus/Ab Incubation 1 hour” value is more than 50 µg/mL and the “Neutralizing Antibody Assay: IC50; Virus/Ab Incubation 18 hour” value is more than 50 µg/mL.

B2: 1460_G14 (PGG14) (antibody, V domains shown)
VH: QVLLVQSGTEVKKPGSSVKVSCQASGGAFSSYAFSWVRQAPGQGLEWMGMITPVFGETKYAPRFQGRLTLTAEESLSTTYMELRSLTSDDTAFYYCTRDRRVVPMATDNWLDPWGQGTLVTVSS
VL: DIQLTQSPSSLSASVGDRVTVTCRASQTIHTYLNWYQQIPGKAPKLLIYGASTLQSGVPSRFSGSGSGTDFTLTINSLQPEDFATYYCQQSYSTPRTFGQGTRLDIKR
With B2, the “IC50, pseudovirus neutralization” value in experiment [2] is more than 50 µg/mL.

B3: 1456_P20 (PG20) (antibody, V domains shown)
VH: QVRLVQSGPEVKKPGSSVTVSCQASGGTFSSYAFTWVRQAPGQGLEWLGMVTPIFGEAKYSQRFEGRVTITADESTSTTSIELRGLTSEDTAIYYCARDRRAVPIATDNWLDPWGQGTLVTVSS
VL: DIQLTQSPSSLSASVGDRVSITCRASQTINNYLNWYQQTPGKAPKLLIYGASNLQNGVPSRFSGSGSGTDFTLTISSLQPEDFATYYCQQSFSTPRTFGQGTRLDIKR
Consider B3, for which, in experiment [2], the “IC50, pseudovirus neutralization” value was more than 50 µg/mL.
